# Source: patent US9346795B2, “Substituted sulfonamides useful as antiapoptotic Bcl inhibitors” (Bristol-Myers Squibb Company, priority 2011, dated 2016)
# Amino acid sequences for entries named in this document (tags omitted).
# UniProt Q07817, whole entry: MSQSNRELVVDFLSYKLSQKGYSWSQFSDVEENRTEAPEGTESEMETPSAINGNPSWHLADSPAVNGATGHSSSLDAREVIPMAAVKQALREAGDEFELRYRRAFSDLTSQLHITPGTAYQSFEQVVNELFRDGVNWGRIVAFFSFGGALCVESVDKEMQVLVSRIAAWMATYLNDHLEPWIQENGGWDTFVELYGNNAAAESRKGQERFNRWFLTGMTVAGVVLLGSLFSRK
# UniProt P10415, whole entry: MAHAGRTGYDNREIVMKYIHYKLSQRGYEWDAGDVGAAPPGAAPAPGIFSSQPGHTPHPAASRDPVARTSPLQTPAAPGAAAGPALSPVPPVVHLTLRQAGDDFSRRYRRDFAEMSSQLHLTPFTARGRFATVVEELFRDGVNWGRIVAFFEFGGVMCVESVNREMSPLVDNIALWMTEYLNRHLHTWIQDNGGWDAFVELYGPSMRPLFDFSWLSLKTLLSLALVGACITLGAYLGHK
# Experiments:
# Bcl-xL = Bcl-xL (Homo sapiens (Human), UniProt Q07817); assay: Bcl-xL/Bim Fluorescence Resonance Energy Transfer Assay (FRET); format: binding
# Description: Bcl-xL/Bim Fluorescence Resonance Energy Transfer Assay (FRET) The assays were performed in black flat-bottom 384-well plates. The final assay volume was 55 μl prepared from additions of Biotin-Bcl-xL (Bcl-xL: GENBANK® Accession No. […] The reaction was incubated at room temperature for 60 minutes. After 60 minutes, 5 μL of Streptavidin-Terbium FRET detection reagent (Perkin Elmer) was added to the reaction mixture and incubated at room temperature in the dark for 30 mins. […] Compounds were dissolved at 10 mM in dimethylsulfoxide (DMSO) and evaluated at eleven concentrations. IC50 values were derived by non-linear regression analysis.
# Bcl-2 = Bcl-2 (Homo sapiens (Human), UniProt P10415); assay: Bcl-2/Bim Fluorescence Polarization Assay (FPA); format: binding
# Description: Bcl-2/Bim Fluorescence Polarization Assay (FPA)
# The assays were performed in black flat-bottom 384-well plates. […] The reaction was incubated at room temperature for 60 minutes and fluorescence polarization of the reaction was detected on the LJL Plate Reader. Inhibition data were calculated from mP values generated by the no protein control reactions for 100% inhibition and vehicle-only reactions for 0% inhibition. The final concentrations of reagents in the assay were 4.9 nM BCL-2, 5 nM fluoresceinated 18-mer BIM peptide and 1% DMSO. Dose response curves were generated to determine the concentration required inhibiting 50% of kinase activity (IC50). Compounds were dissolved at 10 mM in dimethylsulfoxide (DMSO) and evaluated at eleven concentrations. IC50 values were derived by non-linear regression analysis.
IC50 (Bcl-xL) [nM],IC50 (Bcl-2) [nM],Structure (SMILES)
7.06,–,"CCCCN(CCCC)C(=O)c1nn(-c2ccc(C(=O)NS(=O)(=O)c3ccc4ccccc4c3)cc2C(=O)N2Cc3ccccc3C[C@H]2CNC2CCN(C)CC2)c(C)c1Cl [Example 106, N,N-Dibutyl-4-chloro-5-methyl-1-(2-((S)-3-((1-methylpiperidin-4-ylamino)methyl)-1,2,3,4-tetrahydroisoquinoline-2-carbonyl)-4-(naphthalen-2-ylsulfonylcarbamoyl)phenyl)-1H-pyrazole-3-carboxamide]"
4.96,–,"CCCCc1c(-c2ccc(C(=O)NS(=O)(=O)c3ccc4ccccc4c3)cc2C(=O)N2CCc3ccccc3C2)c(CO)nn1-c1ccc(OCC(O)CO)cc1 (racemic) [Example 258, (±)-4-(5-Butyl-1-(4-(2,3-dihydroxypropoxy)phenyl)-3-(hydroxymethyl)-1H-pyrazol-4-yl)-N-(naphthalen-2-ylsulfonyl)-3-(1,2,3,4-tetrahydroisoquinoline-2-carbonyl)benzamide]"
40,40,"CCCCN(CCCC)C(=O)c1nn(-c2ccc(C(=O)NS(=O)(=O)c3ccc4cccc(I)c4c3)cc2C(=O)N2CCc3ccccc3C2)c(C)c1Cl [Example 7, N,N-dibutyl-4-chloro-1-(4-(8-iodonaphthalen-2-ylsulfonylcarbamoyl)-2-(1,2,3,4-tetrahydroisoquinoline-2-carbonyl)phenyl)-5-methyl-1H-pyrazole-3-carboxamide]"
6.27,–,"CCCCN(CCCC)C(=O)c1nn(-c2ccc(C(=O)NS(=O)(=O)c3ccc4ccccc4c3)cc2C(=O)N2Cc3ccccc3C[C@H]2CO)c(C)c1Cl [Example 91, N,N-Dibutyl-4-chloro-1-(2-((S)-3-(hydroxymethyl)-1,2,3,4-tetrahydroisoquinoline-2-carbonyl)-4-(naphthalen-2-ylsulfonylcarbamoyl)phenyl)-5-methyl-1H-pyrazole-3-carboxamide]"
